Test results taken from paper PMC12582325 (Proceedings of the National Academy of Sciences of the …, 2025).

Key:
Fo.Ste2 = type: cell-based, Fusarium oxysporum
Sc Ste2 = target: T1, Sc Ste2 (Saccharomyces cerevisiae, UniProt D6VTK4); type: cell-based
T1 construct: The native Sc system and an empty construct were added as positive and negative controls; endogenous in cells; host or cells: Saccharomyces cerevisiae wild-type control strains GEN18 (MATa) and GEN27 (MATα)
T1 sequence (D6VTK4 1-431): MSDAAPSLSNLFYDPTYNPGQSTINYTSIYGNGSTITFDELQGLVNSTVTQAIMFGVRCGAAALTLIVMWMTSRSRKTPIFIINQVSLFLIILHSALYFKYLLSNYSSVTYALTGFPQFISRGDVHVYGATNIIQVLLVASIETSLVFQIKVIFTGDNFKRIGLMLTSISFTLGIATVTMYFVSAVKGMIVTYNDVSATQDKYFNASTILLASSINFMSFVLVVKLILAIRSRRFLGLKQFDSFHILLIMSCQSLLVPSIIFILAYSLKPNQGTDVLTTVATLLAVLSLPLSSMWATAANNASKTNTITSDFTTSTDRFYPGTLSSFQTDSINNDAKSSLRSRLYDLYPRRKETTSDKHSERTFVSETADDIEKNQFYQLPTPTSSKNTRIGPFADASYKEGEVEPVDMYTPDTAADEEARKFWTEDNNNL

Bb.Ste2 [1] = type: cell-based, Beauveria bassiana
Ca.Ste2 = type: cell-based, Candida albicans
Fg.Ste2 = type: cell-based, Fusarium graminearum; settings: for Diploid frequency (%): 20 h coculture; for diploid frequency (%) / average (diploid colonies): GPCR strain GEN37 HIS; for average (diploid colonies): dilution 500, mean of Rep1-3
Bb.Ste2 [2] = type: cell-based, Beauveria bassiana; settings: for Diploid frequency (%): 20 h coculture; for diploid frequency (%) / average (diploid colonies): GPCR strain GEN47 HIS; for average (diploid colonies): dilution 500, mean of Rep1-3; for Sup.Fig.7A - Bb, group mean: Mean from Tukey test details, n = 3; for diploid frequency (%), Plates, Bb: co-culture GEN110 + GEN111, individual replicates (n=3)
[3] = Fig. 1D mating matrix, pheromone secreted by MATa strain, GPCR in MATα strain, deep well plate, three technical plating replicates
[4] = Fig. 1F validation in culture tubes, secreted pheromone, three biological and three technical replicates

## CSCC[C@H](NC(=O)[C@H](CS)NC(=O)[C@@H](N)Cc1c[nH]c2ccccc12)C(=O)N[C@@H](CCCNC(=N)N)C(=O)N1CCC[C@H]1C(=O)NCC(=O)N[C@@H](CCC(N)=O)C(=O)N1CCC[C@H]1C(=O)N[C@@H](CS)C(=O)N[C@@H](Cc1c[nH]c2ccccc12)C(=O)O [Bb]
Fo.Ste2
  Diploid frequency (%): 0.9% and 0.1%
  average (diploid colonies): 2.67 and 3 and 2
  diploid frequency (%): 0.93% and 1.04% and 0.7%
Sc Ste2
  Diploid frequency (%): 0.0%
Bb.Ste2 [1]; pH=6
  Sup.Fig.7B - Bb, group mean: 0.7667
Bb.Ste2 [1]; pH=7
  Sup.Fig.7B - Bb, group mean: 0.65
Bb.Ste2 [1]; ph=6
  qPCR, Bb + Bb: 0.042 and 0.063
Ca.Ste2
  Diploid frequency (%): 0.0%
Fg.Ste2; [3]
  Diploid frequency (%): 0.0%
Fg.Ste2; [4]
  Diploid frequency (%): 0.1%
Fg.Ste2; co-culture replicate 1
  diploid frequency (%): 0.16%
  average (diploid colonies): 0.67
Fg.Ste2; co-culture replicate 2
  diploid frequency (%): 0.08%
  average (diploid colonies): 0.33
Fg.Ste2; co-culture replicate 3
  diploid frequency (%): 0%
  average (diploid colonies): 0
Bb.Ste2 [2]; [3]
  Diploid frequency (%): 0.4%
Bb.Ste2 [2]; [4]
  Diploid frequency (%): 6.2%
Bb.Ste2 [2]; co-culture replicate 1
  diploid frequency (%): 8.71%
  average (diploid colonies): 48
Bb.Ste2 [2]; co-culture replicate 2
  diploid frequency (%): 6.15%
  average (diploid colonies): 33
Bb.Ste2 [2]; co-culture replicate 3
  diploid frequency (%): 11.44%
  average (diploid colonies): 65
Bb.Ste2 [2]; UNB
  Sup.Fig.7A - Bb, group mean: 0.08073
  diploid frequency (%), Plates, Bb: 1.59% and 3.12% and 3.62%
Bb.Ste2 [2]; pH=6
  diploid frequency (%), Plates, Bb: 0.53% and 1.24%
Bb.Ste2 [2]; pH=7
  diploid frequency (%), Plates, Bb: 0.53% and 0.89%
Bb.Ste2 [2]; ph=6 + HRP
  Sup.Fig.7A - Bb, group mean: 0.0078
Bb.Ste2 [2]; ph=6
  Sup.Fig.7A - Bb, group mean: 0.049
Bb.Ste2 [2]; ph=7
  Sup.Fig.7A - Bb, group mean: 0.001033

Values joined by “and” are separate entries in the source; they are usually repeats but may differ in a detail not shown here. Identical values can stand only once. Like-named read-outs stand apart in the source and are kept apart here.
